Assay results reported in patent publication US20050288187A1, “Inhibitor development for 4-hydroxyphenylpyruvate dioxygenase, employing tyrosinemia 1 as a model for human diseases mediated by 2-oxoacid utilizing dioxygenases” (priority 2002, published 2005).

Amino acid sequences for entries named in this document (tags omitted). A change or cut given only in a name is not applied to a line headed by its entry.
UniProt P32754: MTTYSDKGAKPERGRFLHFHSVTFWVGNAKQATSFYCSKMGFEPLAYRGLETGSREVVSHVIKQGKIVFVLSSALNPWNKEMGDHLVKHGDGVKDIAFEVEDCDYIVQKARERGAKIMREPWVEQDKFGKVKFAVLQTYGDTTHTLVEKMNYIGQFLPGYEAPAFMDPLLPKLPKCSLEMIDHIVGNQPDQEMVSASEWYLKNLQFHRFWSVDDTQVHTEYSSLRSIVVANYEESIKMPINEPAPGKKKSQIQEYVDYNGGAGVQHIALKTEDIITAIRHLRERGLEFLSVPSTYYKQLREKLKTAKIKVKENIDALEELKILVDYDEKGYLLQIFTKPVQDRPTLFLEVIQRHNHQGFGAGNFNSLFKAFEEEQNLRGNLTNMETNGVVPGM

Target: 4-HPPD (Homo sapiens, UniProt P32754)
Conditions: in vivo

Compound: O=C1CCCC(=O)C1C(=O)c1ccc(C(F)(F)F)cc1[N+](=O)[O-] [NTBC, 2-(2-nitro-4-trifluoromethylbenzoyl)-cyclohexane-1,3-dione]
- all the biomarkers for 4-HPPD activity, average of their initial values: 3%
- excretion of succinylacetoacetate, normalization: normalized within two weeks
- plasma concentration of succinylacetone, normalization: stabilized in the normal range after two months of treatment
- biomarkers for 4-HPPD activity, response upon initiation of NTBC treatment (po): promptly decreased
